The data set can be described thus: label from the status in PepcDB records.

Consider “MFQRLNKMFVGEVSSSSNQEPEFNEKEDDEWILVDFIDTCTGFSAEEEEEEEDISEESPTEHPSVFSCLPASLECLADTSDSCFLQFESCPMEESWFITPPPCFTAGGLTTIKVETSPMENLLIEHPSMSVYAVHNSCPGLSEATRGTDELHSPSSPRVEAQNEMGQHIHCYVAALAAHTTFLEQPKSFRPSQWIKEHSERQPLNRNSLRRQNLTRDCHPRQVKHNGWVVHQPCPRQYNY”, for which the protein production result is reported as “failed”. As for “MSSGLRAADFPRWKRHISEQLRRRDRLQRQAFEEIILQYNKLLEKSDLHSVLAQKLQAEKHDVPNRHEISPGHDGTWNDNQLQEMAQLRIKHQEELTELHKKRGELAQLVIDLNNQMQRKDREMQMNEAKIAECLQTISDLETECLDLRTKLCDLERANQTLKDEYDALQITFTALEGKLRKTTEENQELVTRWMAEKAQEANRLNAENEKDSRRRQARLQKELAEAAKEPLPVEQDDDIEVIVDETSDHTEETSPVRAISRAATKRLSQPAGGLLDSITNIFGRRSVSSFPVPQDNVDTHPGSGKEVRVPATALCVFDAHDGEVNAVQFSPGSRLLATGGMDRRVKLWEVFGEKCEFKGSLSGSNAGITSIEFDSAGSYLLAASNDFASRIWTVDDYRLRHTLTGHSGKVLSAKFLLDNARIVSGSHDRTLKLWDLRSKVCIKTVFAGSSCNDIVCTEQCVMSGHFDKKIRFWDIRSESIVREMELLGKITALDLNPERTELLSCSRDDLLKVIDLRTNAIKQTFSAPGFKCGSDWTRVVFSPDGSYVAAGSAEGSLYIWSVLTGKVEKVLSKQHSSSINAVAWSPSGSHVVSVDKGCKAVLWAQY”, the protein production entry is listed as “failed”.
